Most compounds without a hit are left out; they make up all but 0.78% or so of the library.
miR-21 reporter = raises the signal of a miR-21 reporter | HeLa miR-21 FLuc reporter, luciferase, 48 h | Potency, µM (highest dose often 38.3 µM), for inactives: at the highest dose reporter change, positive = more light | 340,000 tested, under 10 active | AID 2288; active = well fitted rising curve with a large enough effect; inconclusive = small, poorly fitted or top-dose-only effect; inactive = no such curve, though single readings can be large or run the other way;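 also: % of control where 0% means no effect; miR-21 action dims this reporter so a rising signal means less miR-21 action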
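HeLa miR-21-FLuc reporter line, endogenous miR-21; 2000 cells/well in DMEM/10% FBS; compound titration up to ~40uM final, 48 h, 37 degree Celsius; luciferase detection reagent, 15 min lysis, CCD luminescence.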
RXFP1 antag = antagonists of human relaxin receptor RXFP1. HEK293-RXFP1, relaxin-stimulated cAMP HTRF, 30 min; hits give low values. activity change, negative = inhibition, % at 57.5 µM. 350,000 compounds, 0.59% hits. AID 1259400;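 active means activity change of -60% or lower, but not beyond a set lower limit; inconclusive means change between -60% and -40%, or beyond the set limit; inactive means change above -40%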; further: on the % scale 0 is the no-effect control and ±100 the full control effect
IL-2 act = IL-2 activation | activation, % (series mostly up to about 46 µM) | IL-2 activation reporter assay, cell-based qHTS; stimulated with anti-CD3/CD4/CD28 beads; in transgenic mouse T cells | 360,000 compounds, 0.065% hits; in the data active means activation above about 50%; inconclusive means mostly about 30% to 49%; further: 0% is about no effect
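Using fluorescent plate cytometry, EGFP and DsRed are detected in transgenic mouse T cells stimulated 18 h at 37 degrees C with antibody-coated beads after 60 min compound pretreatment.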
TCR act = activators of T cell receptors; primary human leukocytes, anti-CD3, IL-2 HTRF, 48 h; Potency, µM (series often up to 9.22 µM), for inactives: at the top dose activation of IL-2 secretion, hits mostly activators; 330,000 tested, under 10 active; AID 504894; further: % of control where 0% means no effect
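TCR engagement came from a-CD3 beads alone, with compounds added to primary human leukocytes for 48 hr. Secreted IL-2 bridged europium cryptate- and d2-labelled anti-IL-2 antibodies, giving FRET emission at 665nm after 320nm excitation.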
PINK1 expr mod = modulators of PINK1 expression. PINK1 immunofluorescence, high-content cytometry, 24 h. Potency, µM (series often up to 76.6 µM), without a hit: at the highest dose activation (PINK1 increase), hits mostly activators. 410,000 compounds, 0.2% hits; active means well fitted activation curve with a large enough effect; inconclusive means small, poorly fitted or top-dose-only effect; cell line not stated here; further: potency means the concentration at half of the fitted maximal effect; % of control where 0% means no effect; nearly all actives have a fitted effect of over 65% in size
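Cells are seeded, rested 12 hours, then given compound at five concentrations or DMSO for 24 hours. After fixation, blocking and antibody staining, PINK1 amount and mitochondrial localization are scored; CCCP serves as control.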
RXFP1 ag = agonists of human relaxin receptor RXFP1. HEK293T-RXFP1 cAMP TR-FRET, 30 min; response scale: percent of porcine relaxin response, buffer zero. Potency, µM (series often up to 57.5 µM), for the others: top-dose activation, usual class: activators. 370,000 compounds, 0.3% hits. AID 2676; further: potency means the concentration at half of the fitted maximal effect; on the % scale 0 is the no-effect control and ±100 the full control effect; nearly all actives have a fitted effect of over 60% in size
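Agonist response is measured as cAMP accumulation in an RXFP1-transfected HEK293T line under PDE4 inhibition. Values are scaled between buffer-only and 29 nM porcine relaxin, and EC50s come from standard Hill equation fits.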
Numbers without * were called inactive; ? = inconclusive; . = no result; [ ] = remark or other dose. Unless noted, the call rests on the fitted dose curve; in most records, active means well fitted curve in the direction sought with a large enough effect; inconclusive means small, poorly fitted or top-dose-only effect, or another doubt; inactive means no such curve, though single readings can be large; an effect the other way counts as inactive or inconclusive.

[1] CCCCC(=O)C1=C(N2CCCC2)CC(C)(C)CC1=O
[2] COc1ccccc1N1CCN(c2nc(CNC(=O)c3cc(C)oc3C)nc3ccccc23)CC1
[3] CCN1/C(=C/c2cc[n+](CCCS(=O)(=O)[O-])c3ccccc23)Sc2ccccc21
[4] C[C@@H]1CN(CCCn2c3ccccc3c3ccccc32)C[C@H](C)N1
[5] COc1cc(C2Nc3cccc4cccc(c34)N2)ccc1O
Assay by compound,1,2,3,4,5
miR-21 reporter,.,.,0.5%,?,-2.7%
RXFP1 antag,-62.0*,.,-11.1,-96.7*,-70.3*
IL-2 act,1.6,.,226.1*,.,0.5
TCR act,3.7%,.,2.7%,.,.
PINK1 expr mod,0.2%,2.5%,-0.3%,.,8.8%
RXFP1 ag,.,.,16.9%,3.0%,-2.5%

[6] COc1cc(C2Nc3cccc4cccc(c34)N2)cc(OC)c1OC(C)=O
[7] Cc1cc(C(=O)Nc2cccc(-c3nc(CNC(=O)c4cc5ccccc5[nH]4)c(C)o3)c2)c(C)o1
[8] CN(C)c1ccc(NC(=O)C2C3C=CC(C3)C2C(=O)O)cc1 (stereo not given)
[9] O=C(O)C1C2C=CC(C2)C1C(=O)Nc1ccc2c(c1)OCCO2 (stereo not given)
[10] COc1ccccc1C(=O)N[C@@H]1c2ccccc2C2(CCN(Cc3cnn(C)c3C)CC2)[C@H]1O
Assay by compound,6,7,8,9,10
miR-21 reporter,-0.1%,.,-6.6%,-24.8%,.
RXFP1 antag,?,.,-119.1*,0.4,.
IL-2 act,0.4,.,-2.3,-0.8,.
TCR act,0.9%,.,12.9%,.,.
PINK1 expr mod,-1.0%,1.2%,-3.0%,-1.7%,0.2%
RXFP1 ag,0.5%,.,-14.8%,0.5%,.

[11] CN1C(=O)/C(=C\c2ccc(OC(=O)c3ccco3)cc2)SC1=S
[12] CN1C(=O)/C(=C/c2ccc(OC(=O)c3ccco3)cc2)SC1=S
[13] C=CCn1c(Sc2ncc([N+](=O)[O-])s2)n[nH]c1=O
[14] O=[N+]([O-])c1cnc(Sc2ccncn2)s1
[15] CSc1ccccc1C(=O)NCc1nc(-c2cccc(NC(=O)c3ccoc3C)c2)oc1C
Assay by compound,11,12,13,14,15
miR-21 reporter,9.4%,-5.2%,?,?,.
RXFP1 antag,13.0,-4.1,-80.4*,-14.7,.
IL-2 act,7.9,55.6*,-0.9,-0.9,.
TCR act,0.3%,4.2%,5.5%,6.1%,.
PINK1 expr mod,4.8%,2.7%,2.1%,-1.5%,1.1%
RXFP1 ag,-1.4%,2.8%,4.3%,2.4%,.

[16] COc1ccc(/C=C/C(=O)N2CCc3c(cnc(C)c3CNC(=O)c3ccsc3)C2)cc1OC
[17] Cc1cc(/C=N/n2cnnc2)c(C)n1-c1ccc(OCc2ccc(F)cc2)cc1
[18] Cc1cc(/C=N/n2cnnc2)c(C)n1-c1ccc(OCc2ccc(Cl)cc2Cl)cc1
[19] CCN1CCCC1CNC(=O)c1cnn(-c2ncc3c(n2)-c2ccc(OC)cc2CC3)c1C1CC1 (stereo not given)
[20] Cc1ccc(Cl)cc1-n1ncc2c(NC3CCCCC3)ncnc21
Assay by compound,16,17,18,19,20
miR-21 reporter,.,9.0%,29.7%,.,15.7%
RXFP1 antag,.,-68.1*,-21.2,.,-31.9
IL-2 act,.,-1.0,-0.6,.,.
TCR act,.,-1.7%,-0.1%,.,.
PINK1 expr mod,-0.8%,.,-4.1%,-0.3%,?
RXFP1 ag,.,0.2%,0.1%,.,2.8%

[21] Clc1cccc(-n2ncc3c(NC4CCCCC4)ncnc32)c1
[22] CCCCCCCCCCCCOC(=O)N1CCN(/[N+]([O-])=N/Oc2ccc([N+](=O)[O-])cc2[N+](C)=O)CC1
[23] C=CCNC(=S)Nc1sc2c(c1C(=O)OCC)CCN(C(=O)OCC)C2
[24] O=[N+]([O-])c1cccc(COc2ncnc3cc([N+](=O)[O-])ccc23)c1
[25] COc1ccc(NC(=O)c2sc3nc(-c4cccnc4)ccc3c2N)cc1
Assay by compound,21,22,23,24,25
miR-21 reporter,-12.8%,.,-11.0%,-10.8%,-10.6%
RXFP1 antag,-70.3*,.,-80.3*,35.7,4.7
IL-2 act,.,.,-0.1,-0.2,?
TCR act,.,.,2.4%,3.5%,1.0%
PINK1 expr mod,?,-1.2%,-0.1%,1.2%,44.7µM*
RXFP1 ag,8.6%,.,11.2%,28.2µM*,6.1%

[26] COc1ccc(NC(=O)c2sc3nc(-c4cccnc4)ccc3c2N)cc1OC
[27] COc1cccc(-c2ccc3c(N)c(C(=O)Nc4ccccc4C)sc3n2)c1
[28] Cc1ccc(NC(=O)c2sc3nc(-c4ccncc4)ccc3c2N)cc1
[29] Nc1c(C(=O)Nc2ccc(F)c(F)c2)sc2nc(-c3ccncc3)ccc12
[30] COc1ccc(NC(=O)c2sc3nc4c(cc3c2N)CCCCCC4)cc1OC
Assay by compound,26,27,28,29,30
miR-21 reporter,-7.0%,-20.1%,-18.8%,-14.5%,-3.4%
RXFP1 antag,-2.5,21.2,2.0,.,-4.0
IL-2 act,94.2*,.,.,.,.
TCR act,2.0%,.,.,.,.
PINK1 expr mod,1.8%,0.3%,31.6µM*,0.9%,15.9%
RXFP1 ag,0.3%,?,3.8%,0.0%,7.2%

[31] COc1ccc(C(=O)NCC2Cc3cc(C)cc(-c4cc(C(C)=O)ccc4F)c3O2)c(OC)c1OC (stereo not given)
[32] COc1cc(C)c(CN2CCc3nnc(C(C)NC(=O)c4cc(F)ccc4F)n3CC2)cc1C (stereo not given)
[33] COC(=O)[C@@H]1CCCN1C(=O)c1c(OC)cc(=O)n2c1CCN(Cc1cc(OC)ccc1F)CC2
[34] Cc1cccc(CCN(C(=O)c2csnn2)C(C(=O)NC2CCCC2)c2ccco2)c1 (stereo not given)
[35] CN(C)c1ccc(/C=C\C=C/c2ccnc3ccccc23)cc1
Assay by compound,31,32,33,34,35
miR-21 reporter,.,.,.,4.2%,.
RXFP1 antag,.,.,.,-73.3*,.
IL-2 act,.,.,.,-0.1,.
TCR act,.,.,.,-0.2%,.
PINK1 expr mod,-0.1%,0.0%,-1.0%,-0.4%,11.2µM*
RXFP1 ag,.,.,.,3.0%,.

Some of the entries above, set out differently.
entry | Structure | miR-21 reporter | RXFP1 antag | IL-2 act | TCR act | PINK1 expr mod | RXFP1 ag
4 | C[C@@H]1CN(CCCn2c3ccccc3c3ccccc32)C[C@H](C)N1 | ? | -96.7* | . | . | . | 3.0%
35 | CN(C)c1ccc(/C=C\C=C/c2ccnc3ccccc23)cc1 | . | . | . | . | 11.2µM* | .
25 | COc1ccc(NC(=O)c2sc3nc(-c4cccnc4)ccc3c2N)cc1 | -10.6% | 4.7 | ? | 1.0% | 44.7µM* | 6.1%
17 | Cc1cc(/C=N/n2cnnc2)c(C)n1-c1ccc(OCc2ccc(F)cc2)cc1 | 9.0% | -68.1* | -1.0 | -1.7% | . | 0.2%

Additional structures
[36] CN(C)c1ccc(/C=C/c2nc3ccccc3c(=O)[nH]2)cc1
[37] O=c1[nH]c(/C=C/c2ccc(Br)cc2)nc2ccccc12
[38] COc1cc(=O)n2c(c1C(=O)NC(C)c1ccco1)CCN(Cc1cc3ccccc3o1)CC2 (stereo not given)
[39] N#C/C(=C(/O)c1ccccc1F)c1nc2cc(C(F)(F)F)ccc2s1
[40] N#C/C(=C(/O)c1ccc2c(c1)OCO2)c1nc2cc(C(F)(F)F)ccc2s1
Assay by compound,36,37,38,39,40
miR-21 reporter,-10.0%,-64.4%,.,-10.8%,-3.7%
RXFP1 antag,-1.1,3.1,.,-6.8,-1.3
IL-2 act,60.9*,-1.4,.,0.8,-2.0
TCR act,-6.6%,3.9%,.,-9.9%,2.0%
PINK1 expr mod,20.6%,4.4%,-0.3%,?,14.1µM*
RXFP1 ag,6.2%,?,.,-0.1%,0.8%

[41] CCCC[n+]1c(/C=C/c2c(OC)cc(OC)cc2OC)ccc2ccccc21
[42] O=S(=O)(Nc1nc2ccccc2nc1Nc1cccc(S(=O)(=O)N2CCCCC2)c1)c1ccccc1
[43] CCCCCCCCCCCCCCCCCCN(C)C
[44] Cc1occc1-c1nnc(SCC(=O)Nc2nc(-c3ccccc3)cs2)o1
[45] COCCCNC(=O)C(C#N)c1nc2ccccc2nc1N1CCN(Cc2ccccc2)CC1 (stereo not given)
[46] C=CCNC(=O)C(C#N)c1nc2ccccc2nc1N1CCN(Cc2ccccc2)CC1 (stereo not given)
[47] OC1(c2cccnc2)CCN(Cc2ccc3c(c2)CN(Cc2cccc4nccnc24)CCO3)CC1
Assay by compound,41,42,43,44,45,46,47
miR-21 reporter,.,17.5%,.,-36.0%,-1.1%,-2.4%,.
RXFP1 antag,.,-20.3,22.1,-11.0,-4.9,-5.9,.
IL-2 act,.,-0.1,.,-2.9,96.5*,66.5*,.
TCR act,.,-2.6%[46.1 µM],.,.,-0.6%,1.0%,.
PINK1 expr mod,5.62µM*,25.1µM*,.,10µM*,-1.4%,4.2%,0.2%
RXFP1 ag,.,0.4%,.,0.9%,4.1%,0.3%,.
